PubChem BioAssay AID732 (Emory University Molecular Libraries Screening Center, 2007)
Activity calls are given as the source filed them. No rule for the calls is given here.

Tested on: in vivo angiogenesis, blood vessel count
Test: reduction of blood vessel formation in vivo – HTS, in vivo study (AID 732);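 also: zebrafish embryos dosed at one day post fertilization; 0% = reference inhibitor and 100% = plate mean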
Settings: hits give low values;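 tested at 30 µM in the well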

For `N#[O+].[C-]#N.[C-]#N.[C-]#N.[C-]#N.[C-]#N.[Fe+2].[Na+].[Na+]`, the vessel count % control was inactive: 77%.
